From ChEMBL document CHEMBL3865840, “Minimizing CYP2C9 Inhibition of Exposed-Pyridine NAMPT (Nicotinamide Phosphoribosyltransferase) Inhibitors” (J Med Chem, 2016)

Amino acid sequences for entries named in this document (tags omitted).
UniProt P11712, whole entry: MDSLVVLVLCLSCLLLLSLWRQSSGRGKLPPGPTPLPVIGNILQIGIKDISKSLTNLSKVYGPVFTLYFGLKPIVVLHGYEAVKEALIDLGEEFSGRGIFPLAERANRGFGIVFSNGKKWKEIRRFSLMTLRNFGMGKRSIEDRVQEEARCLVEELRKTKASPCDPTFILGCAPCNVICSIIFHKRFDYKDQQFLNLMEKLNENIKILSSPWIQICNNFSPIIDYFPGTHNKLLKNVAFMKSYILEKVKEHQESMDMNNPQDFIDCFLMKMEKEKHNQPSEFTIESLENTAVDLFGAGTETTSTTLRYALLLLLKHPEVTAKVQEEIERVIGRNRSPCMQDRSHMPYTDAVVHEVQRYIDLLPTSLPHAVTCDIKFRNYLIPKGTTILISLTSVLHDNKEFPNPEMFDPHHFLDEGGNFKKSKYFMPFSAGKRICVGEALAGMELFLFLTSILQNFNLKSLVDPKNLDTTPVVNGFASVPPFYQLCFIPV
UniProt P10635, whole entry: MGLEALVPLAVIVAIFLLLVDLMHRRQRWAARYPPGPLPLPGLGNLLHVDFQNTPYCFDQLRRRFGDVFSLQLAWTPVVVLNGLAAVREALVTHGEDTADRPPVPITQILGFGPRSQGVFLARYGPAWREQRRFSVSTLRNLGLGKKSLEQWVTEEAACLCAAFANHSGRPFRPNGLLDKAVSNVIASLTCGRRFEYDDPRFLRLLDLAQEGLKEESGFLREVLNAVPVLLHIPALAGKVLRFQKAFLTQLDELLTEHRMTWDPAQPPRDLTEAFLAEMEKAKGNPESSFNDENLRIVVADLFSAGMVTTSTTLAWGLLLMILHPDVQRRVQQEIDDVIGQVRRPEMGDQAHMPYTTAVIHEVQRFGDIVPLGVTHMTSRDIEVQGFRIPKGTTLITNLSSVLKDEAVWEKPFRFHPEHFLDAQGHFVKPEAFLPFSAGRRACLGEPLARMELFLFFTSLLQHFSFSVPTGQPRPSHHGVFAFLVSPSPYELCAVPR

Columns and labels:
Cytochrome P450 2C9 = Cytochrome P450 2C9 (Homo sapiens, UniProt P11712)
Cytochrome P450 2D6 = Cytochrome P450 2D6 (Homo sapiens, UniProt P10635)

- IC50 (Cytochrome P450 2C9): 200 nM
- IC50 (Cytochrome P450 2D6): > 10000 nM
Structure (SMILES): O=C(NCc1ccc(S(=O)(=O)c2cc(F)cc(F)c2)cc1)c1ccc2nccn2c1
